The source made the active and inactive calls. How the calls were made is not given here. Some results are limits rather than exact numbers.

Protein sequences, listed by entry. Tags and fused reporters are not part of them.
UniProt P61088, whole entry: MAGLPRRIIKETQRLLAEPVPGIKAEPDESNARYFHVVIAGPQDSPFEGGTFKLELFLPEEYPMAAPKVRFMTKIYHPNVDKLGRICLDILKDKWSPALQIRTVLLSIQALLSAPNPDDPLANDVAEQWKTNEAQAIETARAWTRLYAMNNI

Consider two compounds from PubChem BioAssay AID1552 (Sanford-Burnham Center for Chemical Genomics, 2009).

This assay addresses Ubiquitin-conjugating enzyme E2 N (Homo sapiens) (UniProt P61088). Briefly: UBE2N binders by NMR, biophysical, purified protein (AID 1552). The conditions noted are these: NMR binding to purified UBE2N.

For `CP(N)(=O)Oc1ccc(Cl)cc1` (configuration not stated), the Kd (commonly the free concentration of one partner at which half of the binding sites on the other are occupied at equilibrium, for simple one-to-one binding) is inactive: > 4 mM.
Under `OC1CN2CCC1CC2` (configuration not stated) stands inactive: > 4 mM.
